Measurements from patent publication US11820766B2, “Monoacylglycerol lipase modulators” (Janssen Pharmaceutica NV, priority 2018, dated 2023).

The chains behind the UniProt entries cited, without tags or fusion partners.
UniProt Q99685, whole entry: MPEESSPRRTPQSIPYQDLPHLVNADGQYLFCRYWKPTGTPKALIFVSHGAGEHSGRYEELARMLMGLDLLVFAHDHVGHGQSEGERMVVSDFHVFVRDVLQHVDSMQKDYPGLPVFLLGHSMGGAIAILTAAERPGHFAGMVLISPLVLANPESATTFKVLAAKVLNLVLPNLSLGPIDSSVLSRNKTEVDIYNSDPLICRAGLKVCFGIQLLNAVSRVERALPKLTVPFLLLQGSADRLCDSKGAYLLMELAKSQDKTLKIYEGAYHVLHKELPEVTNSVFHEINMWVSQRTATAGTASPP

Target: human MGL from HeLa cells (Homo sapiens, UniProt Q99685)
Assay: In vitro MGL activity assay: [glycerol-1,3-3H]-oleyl glycerol cleavage by MGL from HeLa cells
Details: read-out: MGL IC50, 300 nM [Glycerol-1,3-3H]-oleyl glycerol, one hour
Method: The assay used to measure the in vitro activity of MGL is adapted from the assay used for another serine hydrolase (FAAH) described in Wilson et al., 2003 (A high-throughput-compatible assay for determining the activity of fatty acid amide hydrolase. Wilson S J, Lovenberg T W, Barbier A J. Anal Biochem. 2003 Jul. 15; 318(2):270-5.). The assay consists of combining endogenously expressed MGL from HeLa cells with test compounds, adding [glycerol-1,3-^3H]-oleyl glycerol, incubating for one hour, and then measuring the amount of cleaved [1,3-^3H]-glycerol that passes through an activated carbon filter. The amount of cleaved, tritiated glycerol passing through the carbon filter is proportional to the activity of the MGL enzyme in a particular well/test condition.
Standard conditions for this assay combine 300 nM [Glycerol-1,3-^3H]-oleyl glycerol with human MGL from HeLa cells and test compounds for one hour, after which the reaction is filtered through activated carbon and tritium is measured in the flow through. The test compound concentration in screening mode is 10 uM, while the highest compound concentration in IC50 assays is determined empirically. MGL is the predominant hydrolase in HeLa cells/cell homogenates.

IC50: 204 nM
Structure (SMILES): COc1ccc2nc(C)c(C(=O)N3CCc4c(nn(C)c4-c4cc(F)c(F)c(F)c4)[C@@H]3C)n2c1
